Source: PubChem BioAssay (NCATS)
Where “and” joins values, the source holds several entries; their conditions need not be identical. Equal entries are not always repeated. This is a selection; strong and weak results do not stand in their true shares. Inconclusive results are not listed. For part of these data: Results with a measured potency or affinity are listed apart. Calls of active or inactive are those of the source. Unless noted, calls come from the whole dose curve; as a rule, active = well fitted curve in the direction sought with a large enough effect; inconclusive = small, poorly fitted or top-dose-only effect, or another doubt; inactive = no such curve, though single readings can be large; an effect the other way counts as inactive or inconclusive.

Amino acid sequences for entries named in this document (tags omitted). Residues count along the entry.
UniProt Q03181, whole entry: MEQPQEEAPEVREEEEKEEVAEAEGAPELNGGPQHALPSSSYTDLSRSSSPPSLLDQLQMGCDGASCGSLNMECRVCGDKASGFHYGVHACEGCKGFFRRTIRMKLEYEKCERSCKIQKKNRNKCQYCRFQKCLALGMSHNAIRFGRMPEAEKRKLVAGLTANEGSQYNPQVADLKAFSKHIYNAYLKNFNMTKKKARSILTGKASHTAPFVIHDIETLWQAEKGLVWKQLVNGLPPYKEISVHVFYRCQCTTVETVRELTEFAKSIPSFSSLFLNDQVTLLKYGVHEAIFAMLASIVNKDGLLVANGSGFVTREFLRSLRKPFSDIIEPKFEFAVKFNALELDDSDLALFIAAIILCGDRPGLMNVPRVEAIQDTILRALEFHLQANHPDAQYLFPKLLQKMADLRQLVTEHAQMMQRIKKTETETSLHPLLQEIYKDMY
UniProt P10828, whole entry: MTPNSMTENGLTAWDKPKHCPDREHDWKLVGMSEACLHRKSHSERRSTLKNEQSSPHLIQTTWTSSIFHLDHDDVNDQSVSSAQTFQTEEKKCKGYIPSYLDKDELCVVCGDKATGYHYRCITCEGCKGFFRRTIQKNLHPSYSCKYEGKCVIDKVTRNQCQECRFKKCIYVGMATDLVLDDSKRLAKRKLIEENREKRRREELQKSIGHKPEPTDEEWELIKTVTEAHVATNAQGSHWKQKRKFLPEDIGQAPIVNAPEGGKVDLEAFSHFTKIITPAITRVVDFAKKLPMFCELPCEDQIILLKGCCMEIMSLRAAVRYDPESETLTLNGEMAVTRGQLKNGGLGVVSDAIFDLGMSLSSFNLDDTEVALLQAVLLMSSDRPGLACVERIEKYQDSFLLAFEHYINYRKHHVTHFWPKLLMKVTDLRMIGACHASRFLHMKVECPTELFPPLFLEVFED
UniProt Q12809, 1-548 isoform 6: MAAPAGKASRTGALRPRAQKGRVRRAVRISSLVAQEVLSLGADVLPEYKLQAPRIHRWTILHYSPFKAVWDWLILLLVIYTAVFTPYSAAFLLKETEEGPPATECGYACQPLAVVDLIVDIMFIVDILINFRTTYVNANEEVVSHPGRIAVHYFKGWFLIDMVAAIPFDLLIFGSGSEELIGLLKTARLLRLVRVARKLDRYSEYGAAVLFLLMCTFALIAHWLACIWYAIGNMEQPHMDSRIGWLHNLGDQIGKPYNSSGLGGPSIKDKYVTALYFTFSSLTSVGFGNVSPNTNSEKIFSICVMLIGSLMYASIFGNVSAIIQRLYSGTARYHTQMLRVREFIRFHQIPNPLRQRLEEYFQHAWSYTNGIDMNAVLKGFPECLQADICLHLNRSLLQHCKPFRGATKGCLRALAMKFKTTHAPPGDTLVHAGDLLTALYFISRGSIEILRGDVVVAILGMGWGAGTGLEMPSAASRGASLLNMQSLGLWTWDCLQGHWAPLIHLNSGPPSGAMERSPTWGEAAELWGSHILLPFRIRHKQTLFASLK
UniProt P08659, whole entry: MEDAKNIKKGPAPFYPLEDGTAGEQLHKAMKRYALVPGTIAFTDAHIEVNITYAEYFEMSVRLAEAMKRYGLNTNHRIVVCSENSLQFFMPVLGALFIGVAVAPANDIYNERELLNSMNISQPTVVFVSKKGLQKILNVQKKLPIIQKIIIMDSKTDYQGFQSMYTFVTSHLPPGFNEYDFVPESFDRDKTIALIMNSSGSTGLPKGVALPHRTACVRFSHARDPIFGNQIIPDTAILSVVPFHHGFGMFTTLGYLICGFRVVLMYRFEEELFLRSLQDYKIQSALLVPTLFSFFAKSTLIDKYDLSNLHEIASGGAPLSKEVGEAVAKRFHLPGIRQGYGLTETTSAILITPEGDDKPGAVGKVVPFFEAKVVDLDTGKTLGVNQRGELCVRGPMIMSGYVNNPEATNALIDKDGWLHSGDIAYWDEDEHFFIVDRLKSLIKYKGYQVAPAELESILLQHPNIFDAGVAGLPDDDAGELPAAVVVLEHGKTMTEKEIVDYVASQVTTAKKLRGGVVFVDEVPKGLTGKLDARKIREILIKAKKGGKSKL
UniProt O94925, whole entry: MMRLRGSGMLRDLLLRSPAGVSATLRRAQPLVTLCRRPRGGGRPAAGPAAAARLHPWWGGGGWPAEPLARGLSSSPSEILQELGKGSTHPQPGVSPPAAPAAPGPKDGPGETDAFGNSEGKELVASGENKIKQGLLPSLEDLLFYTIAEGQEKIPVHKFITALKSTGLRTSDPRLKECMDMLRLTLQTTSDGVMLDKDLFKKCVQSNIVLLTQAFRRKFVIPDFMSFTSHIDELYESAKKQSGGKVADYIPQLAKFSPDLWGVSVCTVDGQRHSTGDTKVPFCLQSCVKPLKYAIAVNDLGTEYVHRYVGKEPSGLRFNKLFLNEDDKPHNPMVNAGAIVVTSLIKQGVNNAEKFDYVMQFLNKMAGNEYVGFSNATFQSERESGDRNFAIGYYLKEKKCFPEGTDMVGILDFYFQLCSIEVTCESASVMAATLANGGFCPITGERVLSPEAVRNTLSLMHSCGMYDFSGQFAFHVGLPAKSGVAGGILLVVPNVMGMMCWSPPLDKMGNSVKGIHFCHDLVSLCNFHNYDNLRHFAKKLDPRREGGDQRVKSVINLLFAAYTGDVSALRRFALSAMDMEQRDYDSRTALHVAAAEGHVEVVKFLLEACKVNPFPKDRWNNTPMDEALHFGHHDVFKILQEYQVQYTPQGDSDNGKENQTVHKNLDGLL
UniProt P43220, whole entry: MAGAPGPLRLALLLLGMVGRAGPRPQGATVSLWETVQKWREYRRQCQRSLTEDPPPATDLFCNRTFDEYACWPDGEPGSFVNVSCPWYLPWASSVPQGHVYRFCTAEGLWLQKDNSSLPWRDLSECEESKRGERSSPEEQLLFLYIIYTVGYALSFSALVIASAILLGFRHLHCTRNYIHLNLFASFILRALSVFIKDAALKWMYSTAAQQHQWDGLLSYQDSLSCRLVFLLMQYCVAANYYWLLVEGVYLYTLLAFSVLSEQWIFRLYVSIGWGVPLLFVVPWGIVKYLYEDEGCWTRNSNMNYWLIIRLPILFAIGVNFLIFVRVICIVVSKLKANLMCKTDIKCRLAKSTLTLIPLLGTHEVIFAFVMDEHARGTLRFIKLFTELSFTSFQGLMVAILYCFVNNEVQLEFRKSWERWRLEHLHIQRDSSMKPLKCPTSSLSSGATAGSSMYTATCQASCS

Assays:
[1] = target: Peroxisome proliferator-activated receptor delta (Homo sapiens) (UniProt Q03181); test: qHTS assay for small molecule antagonists of peroxisome proliferator-activated receptor delta signaling (AID 588535; active = well fitted inhibition curve with a large enough effect in the signal ratio, with a control signal flat, not every such curve was filed as active; the % refers to the signal ratio); conditions: HEK293T PPARd-UAS-bla, beta-lactamase FRET ratio, 18 h; at 76.7 µM (top of the series)
[2] = target: Peroxisome proliferator-activated receptor gamma (Homo sapiens) (UniProt P37231); test: qHTS assay for small molecule agonists of peroxisome proliferator-activated receptor gamma signaling (AID 588536; active = well fitted curve in the direction sought with a large enough effect in the signal ratio, with a control signal flat, not every such curve was filed as active; the % refers to the signal ratio;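 note: 0% = DMSO basal wells and 100% = rosiglitazone at 2 µM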); conditions: HEK293 PPARg-UAS-bla, beta-lactamase ratio, 16 h, percent of rosiglitazone response, DMSO as zero; at 76.7 µM (top of the series)
How it was run: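 HEK293 UAS-bla reporter line, 1% charcoal/dextran FBS; titration, 16 h, 37 C; CCF4 loading 2 h RT; fluorescence 460/530 nm. Normalized to rosiglitazone 2 uM = 100%, DMSO = 0%.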

[3] = target: Peroxisome proliferator-activated receptor gamma (Homo sapiens) (UniProt P37231); test: qHTS assay for small molecule antagonists of peroxisome proliferator-activated receptor gamma signaling (AID 588537; active = well fitted inhibition curve with a large enough effect in the signal ratio, with a control signal flat, not every such curve was filed as active; the % refers to the signal ratio; note: potency is the fitted concentration of half-maximal effect;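 for activity, negative = inhibition: reporter cells co-stimulated with 50 nM rosiglitazone agonist during compound treatment; % of control where 0% means no effect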)
How it was run: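 We seeded GeneBLAzer HEK293 reporter cells at 3000 per well, allowed 6-6.5 h attachment at 37 C, then co-treated with test compound titrations and 50 nM rosiglitazone overnight (16 h). Inhibition was quantified from 460/530 nm emission ratios.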

[4] = target: Vitamin D3 receptor (Homo sapiens) (UniProt P11473); test: qHTS assay for small molecule antagonists of vitamin D receptor signaling (AID 588541; calls by dose curve;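 note: receptor activated by calcitriol during compound treatment; % is set by controls: 0 for no effect and ±100 for the full control effect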); conditions: HEK293T VDR-UAS-bla, beta-lactamase ratio, antagonist mode; at 76.7 µM (top of the series)
How it was run: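 VDR-UAS-bla HEK293T cells (2000/well, 2% charcoal-stripped FBS) were treated with titrated compounds plus 1-alpha,25-dihydroxyvitamin D3 (50 nM or 3 nM final) for 16 h at 37 C. CCF4 beta-lactamase fluorescence was read; Hill fits gave IC50.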

[5] = target: Vitamin D3 receptor (Homo sapiens) (UniProt P11473); test: qHTS assay for small molecule agonists of vitamin D receptor signaling (AID 588543; calls by dose curve;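 note: 0% = DMSO basal and 100% = reference agonist control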); conditions: HEK293T VDR-UAS-bla, beta-lactamase ratio, 16 h; at 76.8 µM (top of the series)
How it was run: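 qHTS in agonist mode: compound titrations stimulate a VDR-driven β-lactamase reporter in HEK293T cells over 16 h at 37 °C. Response normalized to 50 nM 1α,25-dihydroxyvitamin D3 = 100%, DMSO = 0%; Hill fitting gives EC50 and maximal response.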

[6] = target: Retinoic acid receptor RXR-alpha (Homo sapiens) (UniProt P19793); test: qHTS assay for small molecule agonists of retinoid X receptor alpha signaling (AID 588544; calls by dose curve;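 note: 0% = DMSO basal wells and 100% = reference agonist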); conditions: HEK293T RXRa-UAS-bla, beta-lactamase reporter, 18 h; at 76.7 µM (top of the series)
[7] = target: Thyroid hormone receptor beta (Homo sapiens) (UniProt P10828); test: qHTS assay for small molecule agonists of thyroid hormone receptor beta signaling (AID 588545; calls by dose curve); conditions: TR-UAS-bla GripTite HEK 293, beta-lactamase ratio, agonist mode, 18 h, percent of T3 response, DMSO as zero; at 76.7 µM (top of the series)
How it was run: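 In this cell-based screen, titrated compounds act on HEK 293 cells held in medium with 2% charcoal/dextran FBS, NEAA and pyruvate for 18 hrs at 37 C. Responses are expressed relative to T3 (10 nM) as 100% and basal DMSO as 0%.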

[8] = target: Retinoic acid receptor RXR-alpha (Homo sapiens) (UniProt P19793); test: qHTS assay for small molecule antagonists of retinoid X receptor alpha signaling (AID 588546; active = well fitted inhibition curve with a large enough effect in the signal ratio, with a control signal flat, not every such curve was filed as active; the % refers to the signal ratio;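 note: cells stimulated with 9-cis-retinoic acid as agonist; % is set by controls: 0 for no effect and ±100 for the full control effect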); conditions: HEK293T RXRa-UAS-bla, beta-lactamase ratio, antagonist mode
How it was run: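 Beta-lactamase reporter inhibition, read as CCF4 fluorescence ratio (ex 405, em 460/530 nm) after 2 h at RT. HEK293T UAS-bla cells, 2500/well, were stimulated with 9-cis-RA at 500 or 100 nM final alongside test compound for 18 h at 37 C.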

[9] = target: Thyroid hormone receptor beta (Homo sapiens) (UniProt P10828); test: qHTS assay for small molecule antagonists of thyroid hormone receptor beta signaling (AID 588547; active = well fitted inhibition curve with a large enough effect in the signal ratio, with a control signal flat, not every such curve was filed as active; the % refers to the signal ratio); conditions: TR-UAS-bla HEK293, beta-lactamase ratio, antagonist mode, 18 h; stronger effect = lower value
How it was run: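 TR-UAS-bla GripTite HEK293 cells in 2% charcoal/dextran FBS medium were preincubated 4 h at 37 C, given compound (0.59 nM to 92 uM) plus 0.4 nM T3 (final) for 18 h, then CCF4 for 2 h at RT; Hill fit gave IC50.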

[10] = target: Voltage-gated inwardly rectifying potassium channel KCNH2 (Homo sapiens) (UniProt Q12809); test: qHTS Assay for Small Molecule Inhibitors of the Human hERG Channel Activity (AID 588834); conditions: U2OS BacMam hERG, FluxOR thallium flux fluorescence;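 note: U2OS cells transduced with hERG by BacMam; top concentration of the series differs between compounds; % is set by controls: 0 for no effect and ±100 for the full control effect; lower thallium flux fluorescence means stronger hERG block; nearly all actives have a fitted effect of over 50% in size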
[11] = target: Luciferin 4-monooxygenase (Photinus pyralis) (UniProt P08659); test: Biochemical firefly luciferase enzyme assay for NPC (AID 624030);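 note: purified P. pyralis luciferase at 10 nM with luciferin and ATP substrate; 0% = DMSO and -100% = full luciferase inhibition by PTC124 control; nearly all actives have a fitted effect of over 70% in size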; conditions: purified P. pyralis luciferase, luminescence, 5 min
How it was run: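 Counter-screen for direct inhibition of the luciferase enzyme by approved-drug library compounds, run at 10 nM enzyme in 50 mM Tris acetate (final). Luminescence was read within 5 min of enzyme-buffer addition and normalized to PTC124 versus DMSO (0%).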

[12] = S16 Schwann cell viability assay (CellTiter-Glo assay) (AID 624031); conditions: S16 rat Schwann cells viability, 24 h; at 57.5 µM (top of the series) unless noted;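 note: cellular ATP luminescence as a viability measure; plate controls were DMSO-treated cells for no effect and cell-free wells for full effect; nearly all actives have a fitted effect of over 70% in size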
How it was run: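 Native S16 Schwann cells (rat), serum-containing medium, overnight attachment then 24 h drug exposure at 37 °C/5% CO2. CellTiter-Glo ATP signal; normalized to cell-free and vehicle wells.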

[13] = S16 Schwann cell PMP22 intronic element beta-lactamase assay (AID 624044; calls by dose curve;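 note: 0% = DMSO and -100% = potassium clavulanate positive control; nearly all actives have a fitted effect of over 15% in size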); conditions: S16 rat Schwann cells, PMP22 element beta-lactamase FRET, 24 h; at 38.3 µM (top of the series) unless noted
[14] = qHTS assay for small molecule agonists of the antioxidant response element (ARE) signaling pathway (AID 651741; active = well fitted activation curve with a large enough effect in the signal ratio; the % refers to the signal ratio; note: potency is the fitted concentration of half-maximal effect)
How it was run: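 Compounds in DMSO are pinned onto HepG2 ARE-bla cells (2,000/well) that were preincubated 5 h; plates stay 16 h at 37 C, then beta-lactamase activity is detected with LiveBLAzer B/G substrate by fluorescence.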

[15] = qHTS assay for small molecule activators of the p53 signaling pathway (AID 651743; active = well fitted activation curve with a large enough effect in the signal ratio, not every such curve was filed as active; the % refers to the signal ratio; note: % of control where 0% means no effect); conditions: HCT-116 p53RE-bla, beta-lactamase FRET ratio, 16 h; stronger effect = higher value
How it was run: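 Cell-based beta-lactamase reporter (p53 response elements, HCT-116 background). After a 5-hour preincubation, cells received compound for 16 hours at 37 C; substrate development ran 2 hours at room temperature.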

[16] = S16 Schwann cell PMP22 intronic element firefly luciferase assay (AID 624032);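 note: plate controls were DMSO for no effect and PTC124 positive control mean for full effect; nearly all actives have a fitted effect of over 30% in size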
[17] = Cell Proliferation Assay against the TMD8 Cell Line (AID 651645); conditions: TMD8 DLBCL cell line proliferation/viability; at 46.1 µM (top of the series);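 note: cells exposed to compound for 48 h before reading; 100% = DMSO and 0% = 9.2 µM bortezomib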
How it was run: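 Seed log-phase TMD8 cells in RPMI containing 5% FBS, add compounds at once, incubate 48 hours at 37C. Equilibrate to room temperature, add CellTiter-Glo, read luminescence after 15 minutes and express relative to DMSO and bortezomib controls.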

[18] = target: Glutaminase kidney isoform, mitochondrial (Homo sapiens) (UniProt O94925); test: qHTS for Inhibitors of Glutaminase (GLS): LOPAC Validation (AID 624146); conditions: glutaminase enzyme activity inhibition; at 46.1 µM (top of the series);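 note: glutamate product detected by oxidase and peroxidase coupled Amplex red fluorescence gain; % is set by controls: 0 for no effect and ±100 for the full control effect; nearly all actives have a fitted effect of over 60% in size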
How it was run: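 Compounds were pin-transferred onto hKGA, after which L-glutamine (1 mM solution) and a detection mix of glutamate oxidase, HRP and Amplex Red were added. Initial and 30 min RT fluorescence reads were collected.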

[19] = target: Glucagon-like peptide 1 receptor (Homo sapiens) (UniProt P43220); test: qHTS of GLP-1 Receptor Agonists: LOPAC Validation (AID 624148); conditions: GLP-1R agonist cell assay; at 46.1 µM (top of the series);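 note: 0% is about no effect; higher luminescence signal means agonism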
How it was run: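 HEK293 cells stably co-expressing a cAMP-responsive luciferase reporter and a hypersensitive GLP-1R were plated 12 h at 37 °C and exposed to compounds for 4-6 hr at 37 °C, 5% CO2. Luminescence was read 12 min after adding detection reagent.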

[20] = HTS Assay for Allosteric Antagonists of the Human D2 Dopamine Receptor: Hit Validation in HTRF (AID 624455); conditions: D2 receptor cells, HTRF cAMP read-out, antagonist mode; at 46.1 µM (top of the series);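 note: stable D1 dopamine receptor cell line scored for blocking the D1 response; % is set by controls: 0 for no effect and ±100 for the full control effect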
How it was run: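 Hit validation in cells stably expressing the D1 dopamine receptor, run in HTRF format. Compounds were tested for their ability to inhibit the D1-mediated response.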

O=[N+]([O-])c1cccc([N+](=O)[O-])c1
active: Potency [14] 54.5 µM
inactive: activity change, negative = inhibition [1] 21% and 9.21% | activation [2] 5.76% and 3.28% | Potency [3] | activity change, negative = inhibition [4] 5.91% and 2.32% | activation [5] 3.89% and 4.78% | activation [6] -4.79% | activation [7] -25.3% and -4.82% | max response [8] 20.7% and 5.36% | inhibition [9] -1.4% and 9.98% | activity change, negative = inhibition ([10]; at 46.1 µM (top of the series)) -4.7% | activity change, negative = inhibition ([10]; at 92.2 µM (top of the series)) 4.81% | activity change, negative = inhibition ([11]; at 58.6 µM (top of the series)) 11.9% | activity change, negative = inhibition ([11]; at 123 µM (top of the series)) -2.42% | activity change, negative = cytotoxicity [12] 4.05% | ratio activity, negative = inhibition [13] 0.944% | activation [15] -0.128% and -3.12%

OCCSCCO
inactive: activity change, negative = inhibition ([10]; at 46.1 µM (top of the series)) 7.63% | activity change, negative = inhibition ([11]; at 58.6 µM (top of the series)) 5.09% | activity change, negative = cytotoxicity [12] -18% | Potency [16] | ratio activity, negative = inhibition [13] 2.47%

O=[N+]([O-])OCC(CO[N+](=O)[O-])(CO[N+](=O)[O-])CO[N+](=O)[O-]
inactive: activity change, negative = inhibition ([10]; at 46.1 µM (top of the series)) -0.398% | activity change, negative = inhibition ([11]; at 58.6 µM (top of the series)) 13% | activity change, negative = cytotoxicity [12] 3.87% | Potency [16]
active: ratio activity, negative = inhibition [13] -22.9%

Cc1cccc([N+](=O)[O-])c1[N+](=O)[O-]
active: Potency [3] 39.8 µM | Potency [14] 9.44 µM and 6.86 µM
inactive: activity change, negative = inhibition [1] 7.72% and 20.6% | activation [2] 3.16% and -10.7% | activity change, negative = inhibition [4] 3.07% and 8.51% | activation [5] 3.97% and -2.38% | activation [6] -4.84% | activation [7] -5.53% and -9.18% | max response [8] -3.22% and 4.15% | inhibition [9] 8.73% and -7.84% | activity change, negative = inhibition ([10]; at 92.2 µM (top of the series)) 3.35% | activity change, negative = inhibition ([11]; at 123 µM (top of the series)) -13.5% | activation [15] -1.32% and -5.45%

Nc1nc2ccc(OC(F)(F)F)cc2s1
31.6%: viability (% of control) [17]

N#[O+].[C-]#N.[C-]#N.[C-]#N.[C-]#N.[C-]#N.[Fe+2].[Na+].[Na+]
inactive: activity change, negative = inhibition ([10]; at 46.1 µM (top of the series)) 2.98% | activity change, negative = cytotoxicity [12] -6.91% | Potency [16] | ratio activity, negative = inhibition [13] 3.13% | activity change, negative = inhibition [18] 155% | activation [19] 0.896% | activity, negative = inhibition [20] 0.153%

CCOP(=O)(CC)Oc1ccc([N+](=O)[O-])cc1 (stereo unspecified)
inactive: activity change, negative = inhibition ([11]; at 58.6 µM (top of the series)) -5.96%

Cc1ccc([N+](=O)[O-])c([N+](=O)[O-])c1
inactive: activation [2] 4.72% | activity change, negative = inhibition [4] 11.2% | activation [6] -15.3% and -8.29% | activation [7] -33.9% and -6.61% | max response [8] -5.7% and 3.82% | inhibition [9] 25.9% and 10.1% | activity change, negative = inhibition ([10]; at 92.2 µM (top of the series)) 0.866% | activation [15] -0.263% and -2.49%

CN(C)CCS
inactive: activity change, negative = inhibition ([10]; at 46.1 µM (top of the series)) 10.1% | activity change, negative = inhibition ([11]; at 58.6 µM (top of the series)) -0.921% | activity change, negative = cytotoxicity [12] 11.6% | Potency [16] | ratio activity, negative = inhibition [13] 0.317%

CC(C)OP(=O)(F)OC(C)C
inactive: activity change, negative = inhibition ([10]; at 46.1 µM (top of the series)) 18.3% | activity change, negative = inhibition ([11]; at 58.6 µM (top of the series)) 3.54% | Potency [16] | ratio activity, negative = inhibition [13] 1.14%
